# Apparent affinities of Ab-95 variants for a coronavirus HR2 peptide

Reference: Engelhart et al. 2022, doi:10.1038/s41597-022-01779-4. File: FLAb, binding data.

All variants were tested on one target, the spike HR2 peptide PDVDLGDISGINAS (SARS-CoV-2).

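The starting antibody came from a phage panning campaign against this peptide. The library (AAYL52) carries one to three amino acid substitutions per variant, with no insertions or deletions. The scFvs were displayed on barcoded MATa yeast, the peptide on MATalpha yeast. Mating (16 h, 30 °C) was followed by selection of diploids and sequencing of their barcodes. Scores were corrected for input abundance and mapped to Kd with protein pairs of known affinity run in the same pool. There are three technical replicates.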

Each scFv is VH, the linker GGGGSGGGGSGGGGS, VL, as in the parent Ab-95, and differs from it in the CDRs of the light chain only.
VH: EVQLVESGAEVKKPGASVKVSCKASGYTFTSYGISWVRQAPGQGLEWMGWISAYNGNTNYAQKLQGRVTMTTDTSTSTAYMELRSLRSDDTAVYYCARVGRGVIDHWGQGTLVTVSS
VL: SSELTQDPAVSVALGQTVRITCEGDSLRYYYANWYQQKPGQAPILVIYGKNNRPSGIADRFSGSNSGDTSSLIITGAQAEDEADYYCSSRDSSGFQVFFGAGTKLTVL

Changes read parent residue, position, new residue, counted from the first residue of the VL shown. Affinities are written as log10 Kd with Kd in nM; a lower number is a better binder. A mean of the replicates is given; it leaves out those without a signal. Where no diploid with the target was found in that replicate, the entry reads "ND": below detection, most likely a poor binder, though not proof of it. Parent in this assay: reference entry 2.31, copy in this library 2.25. As a blank, each scFv also met three strains without target: over library AAYL52, 28% of these pairings were detected, typically at 3.91 and seldom below 2.90. Also given: how often the same scFv was detected with the empty control strains, with their mean in brackets.

| changes | log10 Kd (nM) by replicate | log10 Kd (nM), mean | control signals |
|---|---|---|---|
| G24C/N51I/N52W | 4.78 / 3.85 / ND | 4.31 | 2/9 (4.06) |
| G49L/S89V/D91Q | ND / 3.84 / ND | 3.84 | 0/9 |
| A32Q/D91G/F95T | 3.62 / ND / 4.34 | 3.98 | 2/9 (4.44) |
| R53L/S88C/F98M | 3.34 / 4.36 / 3.97 | 3.89 | 2/9 (4.05) |
| N52D/Q96V/F98D | ND / 3.08 / ND | 3.08 | 2/9 (4.02) |
| Y30L/R53D/S89N | 3.50 / ND / ND | 3.50 | 1/9 (2.84) |
| S26P/K50M/S88K | ND / ND / ND | ND | 4/9 (4.71) |
| D25S/S26H | 2.06 / 2.03 / 1.61 | 1.90 | 4/9 (4.24) |
| P54M/S93G/Q96L | 3.52 / 2.75 / 3.18 | 3.15 | 2/9 (3.53) |
| Y30G/S88W/G94S | ND / ND / ND | ND | 0/9 |
| S88F/S93F | 3.20 / 3.23 / 2.59 | 3.01 | 1/9 (3.45) |
| S26C/Y29M/N33Y | 4.22 / 4.19 / ND | 4.21 | 3/9 (4.43) |
| R28L/S93C/V97R | ND / ND / ND | ND | 1/9 (3.76) |
| K50G/N52E/Q96W | 4.49 / 3.78 / 3.58 | 3.95 | 4/9 (3.88) |
| A32S/Q96M/F98N | ND / 2.22 / ND | 2.22 | 0/9 |
| N33C/S55L/Q96N | ND / 3.92 / ND | 3.92 | 1/9 (3.77) |
| D25G/Y29H/Q96L | 3.01 / 3.87 / 3.15 | 3.34 | 3/9 (4.05) |
| S26W/K50A/Q96S | 3.70 / 2.55 / 3.08 | 3.11 | 4/9 (3.91) |
| Y29A/Y31Q/Q96M | 1.51 / 1.31 / 0.87 | 1.23 | 6/9 (3.44) |
| D25W/S26W/A32Y | 3.86 / ND / ND | 3.86 | 4/9 (4.39) |
| D25G/P54M/S92C | ND / ND / ND | ND | 0/9 |
| R28E/R90E/S93A | ND / ND / ND | ND | 4/9 (3.81) |
| N52T/S89D/V97T | 3.84 / 3.40 / 1.71 | 2.98 | 1/9 (3.77) |
| S93D | 2.35 / 2.86 / 2.24 | 2.48 | 3/9 (3.99) |
| A32K/S89Q/F98M | 3.58 / 5.03 / ND | 4.31 | 1/9 (4.79) |
| E23L/S26F/F95R | 4.06 / 3.31 / 3.28 | 3.55 | 7/9 (4.15) |
| L27Q/P54E/G94H | ND / ND / ND | ND | 2/9 (3.80) |
| R28Q/Y31M/S55V | 2.43 / 2.39 / 1.83 | 2.22 | 1/9 (3.89) |
| P54D/F95P | 3.16 / 3.35 / 4.59 | 3.70 | 4/9 (4.20) |
| G24L/S89W/Q96M | 3.30 / ND / 2.46 | 2.88 | 2/9 (3.60) |
| S88V/S89E/D91R | 4.96 / ND / ND | 4.96 | 1/9 (2.44) |
| N33P/R90Y/Q96W | 5.51 / 4.31 / ND | 4.91 | 4/9 (4.09) |
| D25K/R90L/Q96D | ND / ND / ND | ND | 5/9 (3.58) |
| E23H/G24T/G94A | 3.26 / ND / 2.90 | 3.08 | 1/9 (3.74) |
| Y31V/S55A/V97L | 3.51 / 3.00 / 3.36 | 3.29 | 4/9 (4.35) |
| S26R/N33D/K50H | 4.34 / 4.57 / 3.95 | 4.29 | 5/9 (3.42) |
| A32P/N33Y/N51Q | ND / 5.68 / 3.51 | 4.60 | 6/9 (3.69) |
| G24N/L27Q/S92F | ND / ND / ND | ND | 0/9 |

The closing 6 entries, repeated:

| changes | log10 Kd (nM) by replicate | log10 Kd (nM), mean | control signals |
|---|---|---|---|
| D25K/R90L/Q96D | ND / ND / ND | ND | 5/9 (3.58) |
| E23H/G24T/G94A | 3.26 / ND / 2.90 | 3.08 | 1/9 (3.74) |
| Y31V/S55A/V97L | 3.51 / 3.00 / 3.36 | 3.29 | 4/9 (4.35) |
| S26R/N33D/K50H | 4.34 / 4.57 / 3.95 | 4.29 | 5/9 (3.42) |
| A32P/N33Y/N51Q | ND / 5.68 / 3.51 | 4.60 | 6/9 (3.69) |
| G24N/L27Q/S92F | ND / ND / ND | ND | 0/9 |